Reference: patent US20260384438A1, “PYRROLOPYRIMIDINE CARBOXAMIDES” (published 2026)

Protein sequences, listed by entry. Tags and fused reporters are not part of them. Residues count along the entry.
UniProt Q16513, whole entry: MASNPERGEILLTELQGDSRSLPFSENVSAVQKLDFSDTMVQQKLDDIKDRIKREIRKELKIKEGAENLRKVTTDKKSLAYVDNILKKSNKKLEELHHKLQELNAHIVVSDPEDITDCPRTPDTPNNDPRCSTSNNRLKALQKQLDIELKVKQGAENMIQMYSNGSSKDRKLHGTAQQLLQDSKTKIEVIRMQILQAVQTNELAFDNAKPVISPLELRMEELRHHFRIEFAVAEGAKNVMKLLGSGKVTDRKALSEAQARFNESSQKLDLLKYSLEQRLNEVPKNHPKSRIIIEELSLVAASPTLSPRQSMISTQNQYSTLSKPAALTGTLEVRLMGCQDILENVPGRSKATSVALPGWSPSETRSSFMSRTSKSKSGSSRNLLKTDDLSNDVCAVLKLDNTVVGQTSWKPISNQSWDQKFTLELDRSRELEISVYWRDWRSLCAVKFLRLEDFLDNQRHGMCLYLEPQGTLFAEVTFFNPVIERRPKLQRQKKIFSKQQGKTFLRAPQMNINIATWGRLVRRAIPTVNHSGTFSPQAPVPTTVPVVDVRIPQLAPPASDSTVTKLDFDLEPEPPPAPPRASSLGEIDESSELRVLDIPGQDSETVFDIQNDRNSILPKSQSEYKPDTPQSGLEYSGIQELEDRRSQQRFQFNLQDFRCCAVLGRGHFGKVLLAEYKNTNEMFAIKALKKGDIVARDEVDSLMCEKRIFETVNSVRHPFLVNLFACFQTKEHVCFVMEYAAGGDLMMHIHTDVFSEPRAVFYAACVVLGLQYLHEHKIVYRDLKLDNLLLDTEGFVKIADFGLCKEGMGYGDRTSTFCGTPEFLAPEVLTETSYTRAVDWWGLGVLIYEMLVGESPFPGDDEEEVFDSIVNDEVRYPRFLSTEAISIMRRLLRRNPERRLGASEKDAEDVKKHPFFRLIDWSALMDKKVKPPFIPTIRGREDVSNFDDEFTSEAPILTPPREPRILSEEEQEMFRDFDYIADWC
UniProt Q96RG2, whole entry: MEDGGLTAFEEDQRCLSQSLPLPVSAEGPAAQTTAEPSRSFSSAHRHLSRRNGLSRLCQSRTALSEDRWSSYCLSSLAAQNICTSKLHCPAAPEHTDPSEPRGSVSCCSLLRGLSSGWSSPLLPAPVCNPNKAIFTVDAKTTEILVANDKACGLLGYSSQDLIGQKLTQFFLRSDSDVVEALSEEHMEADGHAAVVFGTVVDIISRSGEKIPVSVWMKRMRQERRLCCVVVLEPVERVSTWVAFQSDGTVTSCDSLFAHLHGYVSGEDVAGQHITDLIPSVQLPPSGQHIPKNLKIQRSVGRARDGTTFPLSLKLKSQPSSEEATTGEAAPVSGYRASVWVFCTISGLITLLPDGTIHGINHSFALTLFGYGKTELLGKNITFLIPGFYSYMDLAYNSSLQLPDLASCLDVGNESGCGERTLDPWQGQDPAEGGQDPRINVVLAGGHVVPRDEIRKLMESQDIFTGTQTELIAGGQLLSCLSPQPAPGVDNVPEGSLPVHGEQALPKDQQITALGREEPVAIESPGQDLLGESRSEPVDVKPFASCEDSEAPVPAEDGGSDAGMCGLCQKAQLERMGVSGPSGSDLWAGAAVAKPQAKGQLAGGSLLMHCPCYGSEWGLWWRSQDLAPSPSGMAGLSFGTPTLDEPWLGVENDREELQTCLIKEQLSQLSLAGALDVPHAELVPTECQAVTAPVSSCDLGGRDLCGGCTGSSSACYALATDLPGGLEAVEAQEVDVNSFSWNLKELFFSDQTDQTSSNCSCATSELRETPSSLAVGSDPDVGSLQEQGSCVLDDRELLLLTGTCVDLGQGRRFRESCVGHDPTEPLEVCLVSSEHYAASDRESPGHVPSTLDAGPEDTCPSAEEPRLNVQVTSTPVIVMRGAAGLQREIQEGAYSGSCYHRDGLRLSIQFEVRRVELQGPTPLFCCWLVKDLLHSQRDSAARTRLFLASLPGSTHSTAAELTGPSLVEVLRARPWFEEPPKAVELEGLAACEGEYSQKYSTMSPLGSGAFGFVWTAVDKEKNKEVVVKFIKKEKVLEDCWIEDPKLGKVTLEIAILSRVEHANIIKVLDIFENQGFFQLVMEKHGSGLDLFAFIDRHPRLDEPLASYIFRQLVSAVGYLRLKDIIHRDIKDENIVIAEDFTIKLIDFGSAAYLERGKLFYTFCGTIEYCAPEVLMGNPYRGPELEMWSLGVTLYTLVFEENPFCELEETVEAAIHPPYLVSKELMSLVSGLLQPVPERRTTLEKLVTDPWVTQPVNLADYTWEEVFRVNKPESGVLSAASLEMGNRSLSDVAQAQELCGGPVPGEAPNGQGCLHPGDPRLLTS
UniProt Q04771, 21-509 limits assumed: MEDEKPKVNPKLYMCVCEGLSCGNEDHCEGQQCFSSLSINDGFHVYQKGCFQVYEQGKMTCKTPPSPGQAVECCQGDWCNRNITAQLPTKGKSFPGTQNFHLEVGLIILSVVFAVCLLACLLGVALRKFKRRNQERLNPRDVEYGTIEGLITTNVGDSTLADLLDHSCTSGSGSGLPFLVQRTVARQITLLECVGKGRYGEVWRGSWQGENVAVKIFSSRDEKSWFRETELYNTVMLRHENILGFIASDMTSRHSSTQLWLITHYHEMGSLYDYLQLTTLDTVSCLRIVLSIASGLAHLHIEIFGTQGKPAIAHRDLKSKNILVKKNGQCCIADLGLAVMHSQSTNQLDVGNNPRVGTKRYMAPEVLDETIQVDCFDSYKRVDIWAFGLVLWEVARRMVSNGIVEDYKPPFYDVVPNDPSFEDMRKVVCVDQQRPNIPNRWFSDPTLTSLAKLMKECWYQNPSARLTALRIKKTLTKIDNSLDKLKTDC
UniProt P15056, whole entry: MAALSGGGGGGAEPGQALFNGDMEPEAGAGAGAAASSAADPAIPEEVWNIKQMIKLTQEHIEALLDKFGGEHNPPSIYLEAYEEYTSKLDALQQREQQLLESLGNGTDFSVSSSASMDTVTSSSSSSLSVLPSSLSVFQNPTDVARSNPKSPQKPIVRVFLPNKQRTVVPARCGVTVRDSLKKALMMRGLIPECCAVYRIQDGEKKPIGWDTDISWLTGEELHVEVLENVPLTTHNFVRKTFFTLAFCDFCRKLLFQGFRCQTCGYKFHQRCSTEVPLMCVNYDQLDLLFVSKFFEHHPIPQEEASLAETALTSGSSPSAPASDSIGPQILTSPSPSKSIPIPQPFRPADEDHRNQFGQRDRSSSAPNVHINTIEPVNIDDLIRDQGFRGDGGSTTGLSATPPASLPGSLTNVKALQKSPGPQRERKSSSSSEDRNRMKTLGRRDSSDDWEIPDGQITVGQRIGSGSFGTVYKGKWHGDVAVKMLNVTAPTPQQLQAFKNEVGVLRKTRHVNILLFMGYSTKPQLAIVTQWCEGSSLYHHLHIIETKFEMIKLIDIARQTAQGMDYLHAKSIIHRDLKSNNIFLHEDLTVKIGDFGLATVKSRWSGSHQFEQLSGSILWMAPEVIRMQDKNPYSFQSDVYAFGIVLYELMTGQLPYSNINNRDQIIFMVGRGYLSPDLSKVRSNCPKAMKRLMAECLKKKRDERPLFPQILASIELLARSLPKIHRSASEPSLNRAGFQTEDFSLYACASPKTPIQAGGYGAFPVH
UniProt Q8IWQ3, whole entry: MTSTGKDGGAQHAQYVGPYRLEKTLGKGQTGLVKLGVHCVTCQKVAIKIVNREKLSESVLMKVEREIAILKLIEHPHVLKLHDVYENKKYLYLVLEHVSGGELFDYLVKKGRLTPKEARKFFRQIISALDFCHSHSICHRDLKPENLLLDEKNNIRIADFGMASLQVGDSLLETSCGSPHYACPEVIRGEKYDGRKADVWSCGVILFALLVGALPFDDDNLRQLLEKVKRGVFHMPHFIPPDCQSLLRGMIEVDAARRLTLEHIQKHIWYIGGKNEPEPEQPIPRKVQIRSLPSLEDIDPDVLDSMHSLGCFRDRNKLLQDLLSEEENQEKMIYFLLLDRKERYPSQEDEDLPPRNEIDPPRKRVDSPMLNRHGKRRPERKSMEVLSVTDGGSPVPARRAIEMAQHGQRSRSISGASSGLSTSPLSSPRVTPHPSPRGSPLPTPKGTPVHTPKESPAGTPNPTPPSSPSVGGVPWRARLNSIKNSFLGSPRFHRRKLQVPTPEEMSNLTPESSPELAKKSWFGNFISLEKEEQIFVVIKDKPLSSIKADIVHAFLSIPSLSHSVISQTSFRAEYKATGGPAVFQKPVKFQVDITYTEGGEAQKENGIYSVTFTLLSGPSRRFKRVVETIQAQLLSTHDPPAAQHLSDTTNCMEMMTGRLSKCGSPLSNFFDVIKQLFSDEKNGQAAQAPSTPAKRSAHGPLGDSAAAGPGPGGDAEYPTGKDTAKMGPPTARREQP
UniProt Q9HA64, whole entry: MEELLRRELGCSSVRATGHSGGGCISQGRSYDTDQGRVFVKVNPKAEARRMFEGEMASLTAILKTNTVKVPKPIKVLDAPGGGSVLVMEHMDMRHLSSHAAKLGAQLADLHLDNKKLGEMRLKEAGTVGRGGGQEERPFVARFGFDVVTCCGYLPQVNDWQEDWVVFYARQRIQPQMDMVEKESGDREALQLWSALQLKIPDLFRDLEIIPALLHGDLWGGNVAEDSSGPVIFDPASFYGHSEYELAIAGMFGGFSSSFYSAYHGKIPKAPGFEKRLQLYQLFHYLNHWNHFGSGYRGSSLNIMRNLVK
UniProt Q8TF76, whole entry: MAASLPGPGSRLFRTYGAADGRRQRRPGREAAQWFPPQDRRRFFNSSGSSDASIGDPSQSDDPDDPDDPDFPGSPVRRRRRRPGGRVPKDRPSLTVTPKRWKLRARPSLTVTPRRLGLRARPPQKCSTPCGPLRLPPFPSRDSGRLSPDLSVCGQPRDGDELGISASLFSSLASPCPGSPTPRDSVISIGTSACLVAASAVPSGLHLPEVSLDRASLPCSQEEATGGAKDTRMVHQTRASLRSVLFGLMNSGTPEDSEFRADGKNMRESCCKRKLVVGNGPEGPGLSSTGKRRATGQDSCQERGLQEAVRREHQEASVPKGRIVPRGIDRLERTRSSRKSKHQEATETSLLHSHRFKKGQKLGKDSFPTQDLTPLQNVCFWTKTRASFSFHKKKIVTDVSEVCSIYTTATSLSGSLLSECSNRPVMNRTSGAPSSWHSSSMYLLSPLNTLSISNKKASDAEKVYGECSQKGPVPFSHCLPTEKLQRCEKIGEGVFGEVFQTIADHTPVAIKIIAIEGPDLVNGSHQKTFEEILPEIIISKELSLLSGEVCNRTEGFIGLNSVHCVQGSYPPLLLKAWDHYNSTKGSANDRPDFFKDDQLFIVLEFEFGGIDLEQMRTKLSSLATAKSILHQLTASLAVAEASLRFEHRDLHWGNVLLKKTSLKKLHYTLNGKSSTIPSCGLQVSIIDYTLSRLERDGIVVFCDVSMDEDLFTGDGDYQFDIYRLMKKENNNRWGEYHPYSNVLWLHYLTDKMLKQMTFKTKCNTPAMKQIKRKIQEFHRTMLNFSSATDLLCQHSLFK
UniProt Q16566, whole entry: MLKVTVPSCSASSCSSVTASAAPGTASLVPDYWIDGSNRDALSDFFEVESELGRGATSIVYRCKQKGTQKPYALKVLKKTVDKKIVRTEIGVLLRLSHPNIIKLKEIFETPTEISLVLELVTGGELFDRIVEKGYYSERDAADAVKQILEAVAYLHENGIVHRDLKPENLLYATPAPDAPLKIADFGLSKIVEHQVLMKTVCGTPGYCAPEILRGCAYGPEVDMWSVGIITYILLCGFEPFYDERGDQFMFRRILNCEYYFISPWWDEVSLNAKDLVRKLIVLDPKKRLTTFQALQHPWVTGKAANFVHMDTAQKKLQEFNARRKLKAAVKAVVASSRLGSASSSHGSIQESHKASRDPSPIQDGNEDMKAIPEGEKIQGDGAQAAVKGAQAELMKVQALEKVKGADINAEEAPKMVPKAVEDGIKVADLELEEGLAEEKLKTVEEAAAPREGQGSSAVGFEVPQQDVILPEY
UniProt Q9BQI3, whole entry: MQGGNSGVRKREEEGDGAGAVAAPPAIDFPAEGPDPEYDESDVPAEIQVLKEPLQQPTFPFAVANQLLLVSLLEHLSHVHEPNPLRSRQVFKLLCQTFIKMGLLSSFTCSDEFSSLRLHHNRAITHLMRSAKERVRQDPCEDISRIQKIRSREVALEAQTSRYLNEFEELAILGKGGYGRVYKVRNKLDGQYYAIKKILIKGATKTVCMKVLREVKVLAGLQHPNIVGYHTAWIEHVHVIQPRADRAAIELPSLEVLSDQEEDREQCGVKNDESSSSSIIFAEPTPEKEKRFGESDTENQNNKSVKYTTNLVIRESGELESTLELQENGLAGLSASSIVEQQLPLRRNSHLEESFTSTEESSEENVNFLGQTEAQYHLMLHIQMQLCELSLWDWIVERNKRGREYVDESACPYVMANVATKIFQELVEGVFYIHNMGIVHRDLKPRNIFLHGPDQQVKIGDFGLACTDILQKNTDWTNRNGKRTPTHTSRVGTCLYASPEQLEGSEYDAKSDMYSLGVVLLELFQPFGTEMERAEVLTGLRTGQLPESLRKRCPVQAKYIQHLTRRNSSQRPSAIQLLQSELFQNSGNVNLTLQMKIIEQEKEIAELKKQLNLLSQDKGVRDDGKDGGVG

How the values were obtained:
Assay in all cases: KAT chemical proteomics
TESK1 = TESK1 (Homo sapiens, UniProt Q15569)
PKN2 = PKN2 (Homo sapiens, UniProt Q16513)
PASK = PASK (Homo sapiens, UniProt Q96RG2)
ALK = ALK (Homo sapiens, UniProt Q9UM73)
PIK3R4 = tested on: PIK3R4
ACVR1 = ACVR1 (Homo sapiens, UniProt Q04771)
bRAF = bRAF (Homo sapiens, UniProt P15056)
CDK17 = CDK17 (Homo sapiens, UniProt Q00537)
BRSK2 = BRSK2 (Homo sapiens, UniProt Q8IWQ3)
ABL1 = ABL1 (Homo sapiens, UniProt P00519)
JAK2 = JAK2 (Homo sapiens, UniProt O60674)
DOLK = DOLK (Homo sapiens, UniProt Q9UPQ8)
FN3KRP = FN3KRP (Homo sapiens, UniProt Q9HA64)
NME3 = NME3 (Homo sapiens, UniProt Q13232)
BUB1 = BUB1 (Homo sapiens, UniProt O43683)
GSG2 = GSG2 (Homo sapiens, UniProt Q8TF76)
MAP3K2 = MAP3K2 (Homo sapiens, UniProt Q9Y2U5)
PRKAA1 = PRKAA1 (Homo sapiens, UniProt Q13131)
CSNK1G3 = CSNK1G3 (Homo sapiens, UniProt Q9Y6M4)
CSNK1A1 = CSNK1A1 (Homo sapiens, UniProt P48729)
CAMK4 = CAMK4 (Homo sapiens, UniProt Q16566)
LCK = LCK (Homo sapiens, UniProt P06239)
MYLK3 = MYLK3 (Homo sapiens, UniProt Q32MK0)
CDK19 = CDK19 (Homo sapiens, UniProt Q9BWU1)
EIF2AK1 = EIF2AK1 (Homo sapiens, UniProt Q9BQI3)
MAP2K2 = MAP2K2 (Homo sapiens, UniProt P36507)
NEK2 = NEK2 (Homo sapiens, UniProt P51955)
CSNK2B = tested on: CSNK2B
ERN1 = ERN1 (Homo sapiens, UniProt O75460)
RPS6KA1 = RPS6KA1 (Homo sapiens, UniProt Q15418)
ATR = ATR (Homo sapiens, UniProt Q13535)
STK35 = STK35 (Homo sapiens, UniProt Q8TDR2)
TNK1 = TNK1 (Homo sapiens, UniProt Q13470)
EPHB2 = EPHB2 (Homo sapiens, UniProt P29323)
GAK = GAK (Homo sapiens, UniProt O14976)
EPHA7 = EPHA7 (Homo sapiens, UniProt Q15375)
PTK6 = PTK6 (Homo sapiens, UniProt Q13882)
WEE1 = WEE1 (Homo sapiens, UniProt P30291)
CIT = CIT (Homo sapiens, UniProt O14578)
AK2 = AK2 (Homo sapiens, UniProt P54819)
DAPK1 = DAPK1 (Homo sapiens, UniProt P53355)

For `Cc1nc(C(F)(F)F)c2c(C(N)=O)c(N)n(-c3c(C)ccc(O)c3C)c2n1` (single isomer, unassigned), the RB50 (TESK1) was over 50 µM, the RB50 (PKN2) was over 50 µM and the RB50 (PASK) was over 50 µM. For the same compound, the RB50 (ALK) was over 50 µM, the RB50 (PIK3R4) was over 50 µM and the RB50 (ACVR1) was 55.5 nM. For the same compound, the RB50 (bRAF) was 2.74 µM, the RB50 (CDK17) was over 50 µM and the RB50 (BRSK2) was over 50 µM. It also gave an RB50 (ABL1) of 389 nM, an RB50 (JAK2) of over 50 µM and an RB50 (DOLK) of over 50 µM. For the same compound, the RB50 (FN3KRP) was over 50 µM, the RB50 (NME3) was over 50 µM and the RB50 (BUB1) was over 50 µM. It also gave an RB50 (GSG2) of over 50 µM, an RB50 (MAP3K2) of over 50 µM and an RB50 (PRKAA1) of over 50 µM. It also gave an RB50 (CSNK1G3) of over 50 µM, an RB50 (CSNK1A1) of over 50 µM and an RB50 (CAMK4) of over 50 µM. For the same compound, the RB50 (LCK) was over 50 µM, the RB50 (MYLK3) was over 50 µM and the RB50 (CDK19) was over 50 µM. For the same compound, the RB50 (EIF2AK1) was over 50 µM, the RB50 (MAP2K2) was over 50 µM and the RB50 (NEK2) was over 50 µM. For the same compound, the RB50 (CSNK2B) was over 50 µM, the RB50 (ERN1) was over 50 µM and the RB50 (RPS6KA1) was over 50 µM. The RB50 (ATR) was over 50 µM, the RB50 (STK35) was over 50 µM and the RB50 (TNK1) was over 50 µM. It also gave an RB50 (EPHB2) of 176 nM, an RB50 (GAK) of over 50 µM and an RB50 (EPHA7) of over 50 µM. The RB50 (PTK6) was 278 nM, the RB50 (WEE1) was 361 nM and the RB50 (CIT) was over 50 µM. It also gave an RB50 (AK2) of over 50 µM and an RB50 (DAPK1) of over 50 µM.
